Data: PubChem BioAssay AID802 (Columbia University Molecular Screening Center, 2007)
The entries are a selection whose mix differs from that of the whole data set. Activity calls are given as the source filed them.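 Rule for the calls: active = inhibition above the batch mean plus 3 SD, with images confirmed as a hit by eye (cut at about 37% in these data); inconclusive = inhibition above that limit but hit not confirmed in images; inactive = inhibition not above that limit.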

Experiment: blockers of endothelial VCAM-1 upregulation by TNFa – imaging, HUVEC, TNFa stimulus, immunofluorescence, primary screen (AID 802);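 note: 0% = TNF-stimulated DMSO wells and 100% = unstimulated control wells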
Conditions: HUVEC TNFa-induced VCAM-1 immunofluorescence, high-content imaging; at 2 µM; hits give high values
In the case of `O=C(NCC1(N2CCOCC2)CCCCC1)c1cc2ccccc2o1`, the inhibition is reported as inactive: -10.2%. For `O=C(OC1CN2CCC1CC2)C1c2ccccc2Oc2ccccc21` (stereo not given), the inhibition was inactive: -0.7%. In the case of `COc1ccc(NC2CCN(CCc3ccccc3)CC2)c(OC)c1`, the inhibition is reported as inactive: 17.3%. For `N#CC1(Nc2ccccc2)CCN(CCc2ccccc2)CC1`, the inhibition was inactive: -11.5%. For `O=C(NCC1(N2CCOCC2)CCCCC1)c1cc(=O)[nH]c2ccccc12`, the inhibition was inactive: -0.8%. For `CN1CCC(Nc2cccc(F)c2)CC1`, the inhibition was inactive: 9.5%. With `N/C(=N\O)c1c(N)no[n+]1[O-]` the inhibition was inactive: -5.3%. For `c1ccc(CN2CCC(Nc3ccccc3)CC2)cc1`, the inhibition was inactive: -8.6%. For `CCOc1ncccc1C(=O)NCC1(N2CCOCC2)CCCCC1`, the inhibition was inactive: 12.6%. For `CCC(CO)(C(=O)OC1CN2CCC1CC2)c1ccccc1` (stereo not given), the inhibition was inactive: -9.2%.
